ChEMBL document CHEMBL4431392, “Treatment of Pain with Spirocylic Cyclohexane Derivatives Having Dual Specificity for ORL-1 and μ-Opioid Receptors” (2016)

Amino acid sequences for entries named in this document (tags omitted).
UniProt P41146, whole entry: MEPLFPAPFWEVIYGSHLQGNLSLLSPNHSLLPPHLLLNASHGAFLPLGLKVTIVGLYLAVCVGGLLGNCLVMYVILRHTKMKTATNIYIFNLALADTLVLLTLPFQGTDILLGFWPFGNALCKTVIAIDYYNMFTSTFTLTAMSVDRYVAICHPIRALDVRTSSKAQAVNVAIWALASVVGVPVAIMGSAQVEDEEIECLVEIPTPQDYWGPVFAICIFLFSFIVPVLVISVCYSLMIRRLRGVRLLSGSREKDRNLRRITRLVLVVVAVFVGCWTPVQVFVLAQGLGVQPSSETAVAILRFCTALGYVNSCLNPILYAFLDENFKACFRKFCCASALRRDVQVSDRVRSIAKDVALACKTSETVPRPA
UniProt P35372, whole entry: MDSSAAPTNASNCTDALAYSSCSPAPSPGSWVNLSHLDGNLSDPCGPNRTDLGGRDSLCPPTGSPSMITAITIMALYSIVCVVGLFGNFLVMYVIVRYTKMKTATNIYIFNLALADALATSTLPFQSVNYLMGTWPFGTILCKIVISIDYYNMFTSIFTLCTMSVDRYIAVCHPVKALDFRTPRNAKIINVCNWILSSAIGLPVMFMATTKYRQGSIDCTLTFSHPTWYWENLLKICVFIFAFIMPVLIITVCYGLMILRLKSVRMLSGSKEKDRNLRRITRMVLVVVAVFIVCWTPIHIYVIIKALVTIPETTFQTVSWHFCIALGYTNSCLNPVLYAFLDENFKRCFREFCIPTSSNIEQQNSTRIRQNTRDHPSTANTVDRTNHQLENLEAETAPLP

Legend:
Nociceptin receptor = Nociceptin receptor (Homo sapiens, UniProt P41146); test: Displacement of [3H]-nociceptin/orphanin FQ from recombinant ORL1 receptor (unknown origin) expressed in CHO cell membranes measured after 1 hr by scintillation counter method
Mu-type opioid receptor = Mu-type opioid receptor (Homo sapiens, UniProt P35372); test: Displacement of [3H]-naloxone human mu-opioid receptor expressed in CHO-K1 cell membranes measured after 90 mins by beta-counter method
Rattus norvegicus = test: Analgesic activity in iv dosed Sprague-Dawley rat assessed as increase in pain latency measured up to 60 mins by tail-flick assay

Compound CN(C)C1(c2ccccc2)CCC2(CCN(C(=O)CC3CCC3)C2)CC1 (centres undefined) has a Ki (Nociceptin receptor) of 0.4 nM, a Ki (Mu-type opioid receptor) of 0.6 nM and an ED50 (Rattus norvegicus) of 4.17 µg/kg.
For COC1(CCN2CC3(CCC(c4cccs4)(N(C)C)CC3)CC2=O)CCC1 (centres undefined), the ED50 (Rattus norvegicus) was 0.7 µg/kg.
